# Reference: EP3650046A1, “MESENCHYMAL STEM CELL BASED TARGETED ACTIVE INGREDIENT DELIVERY SYSTEM” (Cellis AG, priority 2018, dated 2020)
# Tested on: Human umbilical Mesenchymal Stem Cells (MSC)
# Test: Loading of UC-MSC in suspension with fluorescently labelled iron-binding protein complexes, flow cytometry
# Format: cell-based
# Details: MSC at passage five loaded with 0.6 mg/ml
# Procedure: Umbilical Cord Mesenchymal Stem cells (UC-MSC) were cultured in DMEM 1000, 1:100 penicillin/streptomycin, 20% FBS, 8 ng/ml bFGF. Media was changed every 2 days. Experiments were carried out on UC-MSCs at passage 5.
# Ferritin and haemoglobin complexes were produced as described in WO 2016/207257 (see in particular Examples 5 and 6).
# Human UC-MSCs were loaded in suspension with fluorescently labelled haemoglobin-Alexa488, ferritn-Alexa488 or ferritin loaded with anticancer drug doxorubicin (ferritin-doxorubicin) as follows: UC-MSCs were detached from culture dish with 0,25% Trypsin-EDTA then cells were mixed with 0,6 mg/ml of haemoglobin-Alexa488, ferritn-Alexa488 and ferritn-doxorubicin in PBS to final cell density 10^6 per ml. Next cells were incubated for 1 hour at 37 °C, 5% CO2 and washed once in PBS afterwards. Cells were immediately used to set up co-culture with cancer cells.
substance,measurement,setting,value
"Ferritin-Alexa488: fluorescently labelled ferritin-Alexa488, produced as described in WO 2016/207257",efficacy of loading of MSC,,≥ 95%
same,mean fluorescence intensity in loaded MSC cells versus control group,fold higher than control group,3 times
